The entries are a selection whose mix differs from that of the whole data set. Inconclusive results are not listed. Entries that show only a call come without a potency. Active and inactive are the calls of the source. Calls come from the whole dose curve; as a rule, active = well fitted curve in the direction sought with a large enough effect; inconclusive = small, poorly fitted or top-dose-only effect; inactive = flat fitted curve, though single readings scatter.
Assay: Counterscreen qHTS for Inhibitors of Tau Fibril Formation, Fluorescence Polarization; note: nearly all actives have a fitted effect of over 55% in size
Conditions: tau K18 P301L (four-repeat tau fragment) Alexa594 fluorescence, heparin fibrillization; series mostly up to 57.7 µM
Potency is the fitted concentration of half-maximal effect; tags give direction and shape of the fitted curve or compound fluorescence and quenching.

| SMILES | Potency |
| --- | --- |
| COc1ccc2nc(NP(=O)(c3ccccc3)c3ccccc3)sc2c1 | inactive |
| COc1cc(I)ccc1[As](=O)(O)O | inactive |
| Cc1c2c(nc3ccccc13)SC(C(Cl)Cl)C2 (stereo not drawn) | inactive |
| O=C(OC1CN2CCC1CC2)C12CC3CC(CC(C3)C1)C2 (stereo not drawn) | inactive |
| Cc1cc(=O)[nH]c(N[N+](=O)[O-])n1 | inactive |
| COc1ccc(N/C(=N/P(=O)(N2CCOCC2)N2CCOCC2)N2CCOCC2)cc1 | inactive |
| Cc1ccc(OP(=O)(Nc2ccc([N+](=O)[O-])cn2)Oc2ccc(C)cc2)cc1 | inactive |
| Cc1ccc2nc3c(c(C)c2c1)CC(C(Cl)Cl)S3 (stereo not drawn) | inactive |
| O=[As](O)(c1ccc(O)cc1)c1ccccc1O | inactive |
| C[As](=O)(O)c1cccc(C(=O)O)c1 | inactive |
| CCN(CC)C(=S)SC(NC=O)C(Cl)(Cl)Cl (stereo not drawn) | inactive |
| CC(C)NC(=O)NP(=O)(Oc1ccccc1)Oc1ccccc1 | inactive |
| O=[N+]([O-])c1cc([N+](=O)[O-])c(-c2ccn[nH]2)s1 | inactive |
| ClCCSc1nnc(-c2cccnc2)o1 | inactive |
| CC(C)c1ccc(OP(=O)(Nc2ccccn2)Oc2ccccc2F)cc1 (stereo not drawn) | inactive |
| Cc1cc(SC(NC(=O)c2ccccc2)C(Cl)(Cl)Cl)nc(C(C)C)n1 (stereo not drawn) | inactive |
| CCOC(=O)Nc1ccc([As](=O)(O)O)c(O)c1 | inactive |
| O=P(Nc1ccccn1)(c1cccc2ccccc12)c1cccc2ccccc12 | inactive |
| Cc1cc(SC(NC=O)C(Cl)(Cl)Cl)ncn1 (stereo not drawn) | inactive |
| O=[N+]([O-])c1ccc(Nc2ccc(Oc3ccc([N+](=O)[O-])cc3[N+](=O)[O-])cc2)c([N+](=O)[O-])c1 | inactive |
| CCOC(=O)Nc1cccc([As](=O)(O)O)c1 | inactive |
| O=C(COc1ccccc1)OC1CN2CCC1CC2 (stereo not drawn) | inactive |
| COP1(=S)c2c(C)nn(CCC#N)c2N=C(c2ccc(F)cc2)N1C (stereo not drawn) | inactive |
| CCC(C)N(CC(C)C)C(=S)SC(NC(C)=O)C(Cl)(Cl)Cl (stereo not drawn) | inactive |
| CCOC(=O)c1ccc(NC(=O)C(C)(CCl)SC)cc1 (stereo not drawn) | inactive |
| Clc1n[nH]nc1-c1nn[nH][15n]1 | inactive |

| SMILES | Potency |
| --- | --- |
| CC(C)(C)C(=O)NC(Sc1ncccn1)C(Cl)(Cl)Cl (stereo not drawn) | inactive |
| O=P1(Nc2ccccn2)COc2ccccc2OC1 | inactive |
| CN(CCCl)Cc1cc(Cl)c(NC2=NCCN2)c(Cl)c1 | inactive |
| CCOP(=O)(Nc1ccc(C)cn1)OCC | inactive |
| CC(C)/C=N\N=C(\N)N[N+](=O)[O-] | inactive |
| O=[As](O)(c1ccccc1Br)c1ccccc1Br | inactive |
| CN(C)C1(CNC(=O)c2ccc(S(C)(=O)=O)cc2)CCCCC1 | inactive |
| O=C(/C=C/c1ccccc1)OC1CN2CCC1CC2 (stereo not drawn) | inactive |
| Cc1nn(-c2ccccc2)c2c1P(=O)(N1CCOCC1)N(C)C(c1ccccc1)=N2 (stereo not drawn) | inactive |
| CC1CCC(C(C)C)C(OP(=O)(Nc2ccccn2)c2ccccc2)C1 (stereo not drawn) | inactive |
| Nc1cccc([As](=O)(O)c2ccccc2)c1 | inactive |
| O=P1(Nc2ccc(Br)cn2)COc2ccccc2OC1 | inactive |
| Cc1ccc(OCC(=O)OC2CN3CCC2CC3)cc1 (stereo not drawn) | inactive |
| O=[As](O)(c1cccs1)c1cccs1 | inactive |
| O=P1(Nc2ncccn2)COc2ccccc2OC1 | inactive |
| Nc1ccccc1[As](=O)(O)c1ccccc1 | inactive |
| O=C(O)COc1ccc([As](=O)(O)O)cc1[N+](=O)[O-] | inactive |
| CCOP1(=S)c2c(C)nn(CCC#N)c2N=C(c2ccccc2F)N1C (stereo not drawn) | inactive |
| O=P(Nc1nccs1)(c1ccccc1)c1nc2ccccc2s1 (stereo not drawn) | inactive |
| O=P(Nc1nccs1)(Oc1ccccc1)Oc1ccccc1 | inactive |
| CCOP1(=S)c2c(C)nn(CCC#N)c2N=C(c2ccc(F)cc2)N1C (stereo not drawn) | inactive |
| CN(C(=O)Cc1ccccc1)[C@@H]1CC[C@]2(CCCO2)C[C@H]1N1CCCC1 | inactive |
| O=[N+]([O-])c1ccc2c(c1)nnn2O | inactive |
| NC(=O)Nc1ccc([As](=O)(O)O)cc1 | inactive |
| O=[N+]([O-])CC(O)c1ccc([N+](=O)[O-])cc1 (stereo not drawn) | inactive |
| O=[As](O)(c1cccc(O)c1)c1cccc(O)c1 | inactive |

| SMILES | Potency |
| --- | --- |
| Cc1cccc(OCC(=O)OC2CN3CCC2CC3)c1 (stereo not drawn) | inactive |
| O=C(OC1CN2CCC1CC2)c1ccc(Cl)cc1 (stereo not drawn) | inactive |
| CN(C(=O)Cc1ccc(Cl)c(Cl)c1)[C@@H]1CC[C@]2(CCCO2)C[C@H]1N1CCCC1 | inactive |
| COc1cc(C(=O)NCC2(N3CCOCC3)CCCCC2)cc(Cl)c1OC(C)C | inactive |
| O=[As](O)(O)c1cccnc1 | inactive |
| COc1cc(C2NCCC3(OCCO3)C2(C)C)cc(OC)c1OC (stereo not drawn) | inactive |
| CCOP(=O)(Nc1cccc2ccccc12)OCC | inactive |
| Cc1ccc(NCCc2c([N+](=O)[O-])cc([N+](=O)[O-])cc2[N+](=O)[O-])cc1 | active: 12.6 µM [quencher] |
| Nc1cccc2c([As](=O)(O)O)cccc12 | inactive |
| CCCOP(=S)(Nc1nc(N)cc(=O)[nH]1)OCCC | inactive |
| CC(C)(C)C(=O)NC(Sc1ccccc1)C(Cl)(Cl)Cl (stereo not drawn) | inactive |
| O=P1(Nc2nc3ccc(Cl)cc3s2)COc2ccccc2O1 (stereo not drawn) | inactive |
| CCOc1ccc(C2=NCC(CBr)S2)cc1 (stereo not drawn) | inactive |
| CC(=O)Nc1ccc([As](=O)(O)O)c(O)c1 | inactive |
| CC(=O)Nc1ccc(Oc2c([N+](=O)[O-])cc([N+](=O)[O-])cc2[N+](=O)[O-])cc1 | inactive |
| C[C@@H]1C=CCP(=O)(Oc2ccccc2)O1 (stereo partly drawn) | inactive |
| C[C@H]1OP(=O)(Oc2ccccc2)C[C@@H]2O[C@@H]21 (stereo partly drawn) | inactive |
| c1ccc(-c2nn[nH]n2)c(-c2nn[nH]n2)c1 | inactive |
| Cc1ccc(NP(=O)(Oc2cccc(C)c2)Oc2cccc(C)c2)nc1 | inactive |
| CCOC(=O)NC(Sc1ccccc1)C(Cl)(Cl)Cl (stereo not drawn) | inactive |
| CCNC(=S)/N=C(\N)N[N+](=O)[O-] | inactive |
| O=C(NC1CCS(=O)(=O)C1)NP(=S)(Oc1ccccc1)Oc1ccccc1 (stereo not drawn) | inactive |
| Cc1ccccc1OP(=O)(Nc1ccccn1)Oc1ccccc1C | inactive |
| CN(C)C(=O)Oc1noc2ccccc12 | inactive |
| CCC(=O)N1C2C3N(C(=O)CC)C1C1N(C(=O)CC)C(C(N1C(=O)CC)N3C(=O)CC)N2C(=O)CC | inactive |
| COC(=O)c1cc2c(s1)N=C(c1ccccc1)N(C)P2(=O)N1CCOCC1 (stereo not drawn) | inactive |

Reference: PubChem BioAssay AID1463 (National Center for Advancing Translational Sciences (NCATS), 2008)
